Test results as given in ChEMBL document CHEMBL4823289, “Conformational-Analysis-Guided Discovery of 2,3-Disubstituted Pyridine IDO1 Inhibitors” (ACS Med Chem Lett, 2021).

Protein sequences, listed by entry. Tags and fused reporters are not part of them. Lines headed by an entry give the natural chain unless they say otherwise; changes in a name come on top.
UniProt P28776: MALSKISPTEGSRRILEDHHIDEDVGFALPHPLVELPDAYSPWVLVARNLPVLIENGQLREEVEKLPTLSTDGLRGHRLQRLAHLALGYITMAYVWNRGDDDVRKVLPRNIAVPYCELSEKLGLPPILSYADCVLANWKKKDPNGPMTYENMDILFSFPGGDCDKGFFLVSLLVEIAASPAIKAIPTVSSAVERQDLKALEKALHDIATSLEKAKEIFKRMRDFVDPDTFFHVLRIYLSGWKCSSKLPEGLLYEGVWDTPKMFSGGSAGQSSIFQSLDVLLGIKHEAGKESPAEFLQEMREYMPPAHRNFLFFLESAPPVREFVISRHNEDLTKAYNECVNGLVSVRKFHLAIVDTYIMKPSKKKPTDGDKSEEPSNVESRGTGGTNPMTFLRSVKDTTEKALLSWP

Assays:
Assay type in all cases: functional, organism-based
Parameters in all cases: scale not given: the % may be the effect or the level left
Conditions in all cases: time 5.0 day
[1] = target: Indoleamine 2,3-dioxygenase 1 (Mus musculus) (UniProt P28776); assay: In vivo inhibition of IDO1 in mouse xenografted with human SK-OV-3 cells assessed as reduction in tumor kynurenine AUEC at 20 mg/kg, po QD for 5 days measured up to 24 hrs after dosing relative to control
[2] = target: Indoleamine 2,3-dioxygenase 1 (Mus musculus) (UniProt P28776); assay: In vivo inhibition of IDO1 in mouse xenografted with human SK-OV-3 cells assessed as reduction in tumor kynurenine AUEC at 120 mg/kg, po QD for 5 days measured up to 24 hrs after dosing relative to control
[3] = target: Indoleamine 2,3-dioxygenase 1 (Mus musculus) (UniProt P28776); assay: In vivo inhibition of IDO1 in mouse xenografted with human SK-OV-3 cells assessed as reduction in tumor kynurenine AUEC at 180 mg/kg, po QD for 5 days measured up to 24 hrs after dosing relative to control

Work on `CC[C@@H](NC(=O)c1ccc(OC)nc1)[C@H]1CC[C@@H](c2ccnc(OC)c2C(F)F)CC1` yielded an Activity [1] of 58%, an Activity [2] of 63% and an Activity [3] of 80%.
